For 21 molecules, IC50 results are on record in patent US8962608B2, “Cycloalkylnitrile pyrazole carboxamides as janus kinase inhibitors” (Merck Sharp & Dohme Corp., priority 2011, dated 2015).

By UniProt entry, the sequences of proteins in these tests, tags left out. Residues count along the entry.
UniProt O60674, 849-1124: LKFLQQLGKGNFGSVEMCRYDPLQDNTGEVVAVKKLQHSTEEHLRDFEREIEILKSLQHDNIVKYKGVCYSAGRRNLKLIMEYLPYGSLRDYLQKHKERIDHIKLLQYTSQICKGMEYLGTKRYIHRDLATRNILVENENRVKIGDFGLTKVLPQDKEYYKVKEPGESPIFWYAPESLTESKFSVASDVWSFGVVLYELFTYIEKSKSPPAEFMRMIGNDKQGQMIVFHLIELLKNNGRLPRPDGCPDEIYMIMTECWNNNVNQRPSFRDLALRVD
UniProt P23458, 875-1153: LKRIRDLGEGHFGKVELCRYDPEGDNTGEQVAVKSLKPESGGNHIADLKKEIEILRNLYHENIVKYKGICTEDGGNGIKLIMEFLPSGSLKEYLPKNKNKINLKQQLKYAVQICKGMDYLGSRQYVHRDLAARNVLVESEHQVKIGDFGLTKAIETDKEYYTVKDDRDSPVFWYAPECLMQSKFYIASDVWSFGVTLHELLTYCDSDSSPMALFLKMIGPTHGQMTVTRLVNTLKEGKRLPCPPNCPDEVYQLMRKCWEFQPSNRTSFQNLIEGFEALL

For assay [1], the target named is JAK2 (recombinant purified GST-tagged catalytic domain) (Homo sapiens (Human), UniProt O60674). Briefly: biochemical.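 Note: biochemical JAK kinase assay with HTRF detection.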
Assay [2] concerns the target JAK1 (recombinant purified GST-tagged catalytic domain) (Homo sapiens (Human), UniProt P23458). Kind of assay: biochemical.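 Note: biochemical assay with HTRF read-out.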

Take `CC(C)(c1ccc(Nc2nn([C@H]3CCCC[C@@H]3C#N)cc2C(N)=O)cc1)[C@@H](O)C(F)(F)F` (single isomer, unassigned) [Example 17-31, 1-[(1S,2S or 1R,2R)-2-cyanocyclohexyl]-3-({4-[(2R or 2S)-3,3,3-trifluoro-2-hydroxy-1,1-dimethylpropyl]phenyl}amino)-1H-pyrazole-4-carboxamide]: the 50% inhibitory concentration (IC50) in assay [1] amounted to 10 nM; in assay [2] it was 0.6 nM.

Consider `N#C[C@H]1CCCC[C@@H]1n1cc(C(N)=O)c(Nc2ccc([C@@H](O)C(F)(F)F)cc2)n1` (single isomer, unassigned) [Example 17-36, 1-[(1S,2S or 1R,2R)-2-cyanocyclohexyl]-3-({4-[(1R or 1S)-2,2,2-trifluoro-1-hydroxyethyl]phcnyl}amino)-1H-pyrazole-4-carboxamide], for which the 50% inhibitory concentration (IC50) in assay [1] came out at 2 nM; in assay [2] it was 0.19 nM.

With `N#C[C@H]1CCCC[C@@H]1n1cc(C(N)=O)c(Nc2ccc(Cl)nc2)n1` (single isomer, unassigned) [Example 17-42, 3-[(6-chloropyridin-3-yl)amino]-1-[(1S,2S or 1R,2R)-2-cyanocyclohexyl]-1H-pyrazole-4-carboxamide], the IC50 came out at 178 nM in assay [1] and 18 nM in assay [2].

With `N#C[C@@H]1CCCC[C@H]1n1cc(C(N)=O)c(Nc2ccc(Cl)nc2)n1` (single isomer, unassigned) [Example 17-44, 3-[(6-chloropyridin-3-yl)amino]-1-[(1R,2R or 1S,2S)-2-cyanocyclohexyl]-1H-pyrazole-4-carboxamide], the values for the IC50 in assay [1] and in assay [2] were 18 nM and 3 nM, respectively.

In the case of `C[C@](O)(c1ccc(Nc2nn([C@H]3CC[C@@H](O)C[C@@H]3C#N)cc2C(N)=O)cc1)C(F)(F)F` (single isomer, unassigned) [Example 25-8, 1-[(1S,2S,4R or 1R,2R,4S)-2-cyano-4-hydroxycyclohexyl]-3-({4-[(1S or 1R)-2,2,2-trifluoro-1-hydroxy-1-methylethyl]phenyl}amino)-1H-pyrazole-4-carboxamide], the half-inhibitory concentration (IC50) came to 4 nM in assay [1] and 0.6 nM in assay [2].

For `C[C@@](O)(c1ccc(Nc2nn([C@H]3CC[C@@H](O)C[C@@H]3C#N)cc2C(N)=O)cc1)C(F)(F)F` (single isomer, unassigned) [Example 25-17, 1-[(1S,2S,4R or 1R,2R,4S)-2-cyano-4-hydroxycyclohexyl]-3-({4-[(1R)-2,2,2-trifluoro-1-hydroxy-1-methylethyl]phenyl}amino)-1H-pyrazole-4-carboxamide], the figures for the IC50 in assay [1] and in assay [2] were 2 nM and 0.35 nM, respectively.

As to `CC1(c2ccc(Nc3nn([C@H]4CC[C@@H](O)C[C@@H]4C#N)cc3C(N)=O)cc2)COC1` (single isomer, unassigned) [Example 25-20, 1-[(1S,2S,4R or 1R,2R,4S)-2-cyano-4-hydroxycyclohexyl]-3-{[4-(3-methyloxetan-3-yl)phenyl]amino}-1H-pyrazole-4-carboxamide], the 50% inhibitory concentration (IC50) in assay [1] amounted to 4 nM; in assay [2] it was 1 nM.

With `N#C[C@H]1C[C@H](O)CC[C@@H]1n1cc(C(N)=O)c(Nc2ccc(OC(F)F)cc2)n1` (single isomer, unassigned) [Example 25-26, 1-[(1S,2S,4R or 1R,2R,4S)-2-cyano-4-hydroxycyclohexyl]-3-{[4-(difluoromethoxy)phenyl]amino}-1H-pyrazole-4-carboxamide], the IC50 in assay [1] was found to be 8 nM; in assay [2] it was 0.6 nM.

For `N#C[C@H]1C[C@@H](N2CCC2)CC[C@@H]1n1cc(C(N)=O)c(Nc2ccc(C(F)(F)F)nc2)n1` (single isomer, unassigned) [Example 28-11, 1-[(1S,2S,4S or 1R,2R,4R)-4-azetidin-1-yl-2-cyanocyclohexyl]-3-{[6-(trifluoromethyl)pyridin-3-yl]amino}-1H-pyrazole-4-carboxamide], the IC50 in assay [1] was determined as 75 nM; in assay [2] it was 6 nM.

For `N#C[C@H]1C[C@H](N2CCC2)CC[C@@H]1n1cc(C(N)=O)c(Nc2ccc(C(F)(F)F)nc2)n1` (single isomer, unassigned) [Example 28-33, 1-[(1S,2S,4R or 1R,2R,4S)-4-azetidin-1-yl-2-cyanocyclohexyl]-3-{[6-(trifluoromethyl)pyridin-3-yl]amino}-1H-pyrazole-4-carboxamide], the IC50 was found to be 180 nM in assay [1] and 8 nM in assay [2].

Consider `CC1(C)CN([C@@H]2CC[C@H](n3cc(C(N)=O)c(Nc4ccc([C@](C)(O)C(F)(F)F)cc4)n3)[C@@H](C#N)C2)C1` (single isomer, unassigned) [Example 28-45, 1-[(1S,2S,4R or 1R,2R,4S)-2-cyano-4-(3,3-dimethylazetidin-1-yl)cyclohexyl]-3-({4-[(1S or 1R)-2,2,2-trifluoro-1-hydroxy-1-methylethyl]phenyl}amino)-1H-pyrazole-4-carboxamide], for which the results for the concentration for half-maximal inhibition (IC50) in assay [1] and in assay [2] were 24 nM and 0.2 nM, respectively.

As for `C[C@@](O)(c1ccc(Nc2nn([C@H]3CC[C@H](N4CCC4)C[C@@H]3C#N)cc2C(N)=O)cc1)C(F)(F)F` (single isomer, unassigned) [Example 28-49, 1-[(1S,2S,4S or 1R,2R,4R)-4-azetidin-1-yl-2-cyanocyclohexyl]-3-({4-[(1R or 1S)-2,2,2-trifluoro-1-hydroxy-1-methylethyl]phenyl}amino)-1H-pyrazole-4-carboxamide], the IC50 in assay [1] stood at 5 nM; in assay [2], 0.15 nM.

Take `C[C@](O)(c1ccc(Nc2nn([C@H]3CC[C@@H](N4CCC4)C[C@@H]3C#N)cc2C(N)=O)cc1)C(F)(F)F` (single isomer, unassigned) [Example 28-57, 1-[(1S,2S,4R or 1R,2R,4S)-4-azetidin-1-yl-2-cyanocyclohexyl]-3-({4-[(1S or 1R)-2,2,2-trifluoro-1-hydroxy-1-methylethyl]phenyl}amino)-1H-pyrazole-4-carboxamide]: the values for the IC50 in assay [1] and in assay [2] were 8 nM and 0.15 nM, respectively.

Consider `N#C[C@H]1C[C@@H](N2CC3(CCC3)C2)CC[C@@H]1n1cc(C(N)=O)c(Nc2ccc([C@@H](O)C(F)(F)F)cc2)n1` (single isomer, unassigned) [Example 28-60, 1-[(1S,2S,4S or 1R,2R,4R)-4-(2-azaspiro[3.3]hept-2-yl)-2-cyanocyclohexyl]-3-({4-[(1R or 1S)-2,2,2-trifluoro-1-hydroxyethyl]phenyl}amino)-1H-pyrazole-4-carboxamide], for which the IC50 stood at 9 nM in assay [1] and 0.2 nM in assay [2].

For `CC1(C)CN([C@@H]2CC[C@H](n3cc(C(N)=O)c(Nc4ccc([C@@](C)(O)C(F)(F)F)cc4)n3)[C@@H](C#N)C2)C1` (single isomer, unassigned) [Example 28-62, 1-[(1S,2S,4R or 1R,2R,4S)-2-cyano-4-(3,3-dimethylazetidin-1-yl)cyclohexyl]-3-({4-[(1R or 1S)-2,2,2-trifluoro-1-hydroxy-1-methylethyl]phenyl}amino)-1H-pyrazole-4-carboxamide], the IC50 is 12 nM in assay [1] and 0.15 nM in assay [2].

Consider `N#C[C@H]1C[C@@H](NCC(F)F)CC[C@@H]1n1cc(C(N)=O)c(Nc2ccc(F)c(Cl)c2)n1` (single isomer, unassigned) [Example 28-63, 3-[(3-chloro-4-fluorophenyl)amino]-1-{(1S,2S,4S or 1R,2R,4R)-2-cyano-4-[(2,2-difluoroethyl)amino]cyclohexyl}-1H-pyrazole-4-carboxamide], for which the IC50 in assay [1] turned out to be 41 nM; in assay [2] it was 4 nM.

Take `CC1(C)CN([C@H]2CC[C@H](n3cc(C(N)=O)c(Nc4ccc([C@@](C)(O)C(F)(F)F)cc4)n3)[C@@H](C#N)C2)C1` (single isomer, unassigned) [Example 28-68, 1-[(1S,2S,4S or 1R,2R,4R)-2-cyano-4-(3,3-dimethylazetidin-1-yl)cyclohexyl]-3-({4-[(1R or 1S)-2,2,2-trifluoro-1-hydroxy-1-methylethyl]phenyl}amino)-1H-pyrazole-4-carboxamide]: the 50% inhibitory concentration (IC50) in assay [1] worked out at 1 nM; in assay [2], 0.06 nM.

As for `C[C@@](O)(c1ccc(Nc2nn([C@H]3CC[C@@H](N4CCC4)C[C@@H]3C#N)cc2C(N)=O)cc1)C(F)(F)F` (single isomer, unassigned) [Example 28-76, 1-[(1S,2S,4R or 1R,2R,4S)-4-azetidin-1-yl-2-cyanocyclohexyl]-3-({4-[(1R or 1S)-2,2,2-trifluoro-1-hydroxy-1-methylethyl]phenyl}amino)-1H-pyrazole-4-carboxamide], the half-inhibitory concentration (IC50) came out at 2 nM in assay [1] and 0.04 nM in assay [2].

`C[C@](O)(c1ccc(Nc2nn([C@H]3CC[C@H](N4CCC4)C[C@@H]3C#N)cc2C(N)=O)cc1)C(F)(F)F` (single isomer, unassigned) [Example 28-78, 1-[(1S,2S,4S or 1R,2R,4R)-4-azetidin-1-yl-2-cyanocyclohexyl]-3-({4-[(1S or 1R)-2,2,2-trifluoro-1-hydroxy-1-methylethyl]phenyl}amino)-1H-pyrazole-4-carboxamide]: the figures for the half-maximal inhibitory concentration (IC50) in assay [1] and in assay [2] were 7 nM and 0.2 nM, respectively.

`N#C[C@H]1C[C@@H](N2CC3(CCC3)C2)CC[C@@H]1n1cc(C(N)=O)c(Nc2ccc([C@H](O)C(F)(F)F)cc2)n1` (single isomer, unassigned) [Example 28-88, 1-[(1S,2S,4S or 1R,2R,4R)-4-(2-azaspiro[3.3]hept-2-yl)-2-cyanocyclohexyl]-3-({4-[(1S or 1R)-2,2,2-trifluoro-1-hydroxyethyl]phenyl}amino)-1H-pyrazole-4-carboxamide]: the half-inhibitory concentration (IC50) is 7 nM in assay [1] and 0.1 nM in assay [2].

On to `CC1(C)CN([C@H]2CC[C@H](n3cc(C(N)=O)c(Nc4ccc([C@](C)(O)C(F)(F)F)cc4)n3)[C@@H](C#N)C2)C1` (single isomer, unassigned) [Example 28-89, 1-[(1S,2S,4S or 1R,2R,4R)-2-cyano-4-(3,3-dimethylazetidin-1-yl)cyclohexyl]-3-({4-[(1S or 1R)-2,2,2-trifluoro-1-hydroxy-1-methylethyl]phenyl}amino)-1H-pyrazole-4-carboxamide], for which the IC50 came to 6 nM in assay [1] and 0.3 nM in assay [2].
